The record followed here is publication PMC2629123, “Trypanosoma cruzi CYP51 Inhibitor Derived from a Mycobacterium tuberculosis Screen Hit” (PLoS Neglected Tropical Diseases, 2009).

Sequences of proteins named here, by UniProt entry; tags and fusion partners are left off.
UniProt Q385E8, whole entry L2A: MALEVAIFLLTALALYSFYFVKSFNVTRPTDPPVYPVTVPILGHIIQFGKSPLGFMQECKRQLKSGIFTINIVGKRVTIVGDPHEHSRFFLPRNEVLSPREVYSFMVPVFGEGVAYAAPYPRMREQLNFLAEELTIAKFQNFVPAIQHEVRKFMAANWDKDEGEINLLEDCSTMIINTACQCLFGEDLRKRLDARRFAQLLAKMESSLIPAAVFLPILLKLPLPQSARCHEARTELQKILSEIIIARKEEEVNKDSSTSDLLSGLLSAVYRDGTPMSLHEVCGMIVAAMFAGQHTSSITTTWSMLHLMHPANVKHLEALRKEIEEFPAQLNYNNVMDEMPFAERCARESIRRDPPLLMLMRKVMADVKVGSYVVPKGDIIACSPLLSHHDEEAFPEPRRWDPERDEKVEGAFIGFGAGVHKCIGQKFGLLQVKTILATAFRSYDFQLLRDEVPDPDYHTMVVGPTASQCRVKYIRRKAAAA

Each structure is given as a SMILES string.

In the test the target is T1, CYP51Tb (Trypanosoma brucei brucei, UniProt Q385E8, L2A).
T1 construct: His8 (C); made in house; host or cells: E. coli HMS174(DE3) co-transformed with pGro7 (GroES/GroEL)
Nature of the test: biochemical. Type of test: binding. The settings on record: spectral titration, room temperature, pH 7.5.

`OC(Cn1cncn1)(Cn1cncn1)c1ccc(F)cc1F` [Fluconazole, reference compound] had a Kd of 0.034 ± 0.014 µM.
